Results reported in patent US10550112B2, “Pyrimidines as EGFR inhibitors and methods of treating disorders” (Dana-Farber Cancer Institute, Inc., priority 2015, dated 2020).

The chains behind the UniProt entries cited, without tags or fusion partners. A line that says so, or that is headed by a name, gives the form on record, which may keep a tag or linker.
UniProt P04626, whole entry, stated change not applied: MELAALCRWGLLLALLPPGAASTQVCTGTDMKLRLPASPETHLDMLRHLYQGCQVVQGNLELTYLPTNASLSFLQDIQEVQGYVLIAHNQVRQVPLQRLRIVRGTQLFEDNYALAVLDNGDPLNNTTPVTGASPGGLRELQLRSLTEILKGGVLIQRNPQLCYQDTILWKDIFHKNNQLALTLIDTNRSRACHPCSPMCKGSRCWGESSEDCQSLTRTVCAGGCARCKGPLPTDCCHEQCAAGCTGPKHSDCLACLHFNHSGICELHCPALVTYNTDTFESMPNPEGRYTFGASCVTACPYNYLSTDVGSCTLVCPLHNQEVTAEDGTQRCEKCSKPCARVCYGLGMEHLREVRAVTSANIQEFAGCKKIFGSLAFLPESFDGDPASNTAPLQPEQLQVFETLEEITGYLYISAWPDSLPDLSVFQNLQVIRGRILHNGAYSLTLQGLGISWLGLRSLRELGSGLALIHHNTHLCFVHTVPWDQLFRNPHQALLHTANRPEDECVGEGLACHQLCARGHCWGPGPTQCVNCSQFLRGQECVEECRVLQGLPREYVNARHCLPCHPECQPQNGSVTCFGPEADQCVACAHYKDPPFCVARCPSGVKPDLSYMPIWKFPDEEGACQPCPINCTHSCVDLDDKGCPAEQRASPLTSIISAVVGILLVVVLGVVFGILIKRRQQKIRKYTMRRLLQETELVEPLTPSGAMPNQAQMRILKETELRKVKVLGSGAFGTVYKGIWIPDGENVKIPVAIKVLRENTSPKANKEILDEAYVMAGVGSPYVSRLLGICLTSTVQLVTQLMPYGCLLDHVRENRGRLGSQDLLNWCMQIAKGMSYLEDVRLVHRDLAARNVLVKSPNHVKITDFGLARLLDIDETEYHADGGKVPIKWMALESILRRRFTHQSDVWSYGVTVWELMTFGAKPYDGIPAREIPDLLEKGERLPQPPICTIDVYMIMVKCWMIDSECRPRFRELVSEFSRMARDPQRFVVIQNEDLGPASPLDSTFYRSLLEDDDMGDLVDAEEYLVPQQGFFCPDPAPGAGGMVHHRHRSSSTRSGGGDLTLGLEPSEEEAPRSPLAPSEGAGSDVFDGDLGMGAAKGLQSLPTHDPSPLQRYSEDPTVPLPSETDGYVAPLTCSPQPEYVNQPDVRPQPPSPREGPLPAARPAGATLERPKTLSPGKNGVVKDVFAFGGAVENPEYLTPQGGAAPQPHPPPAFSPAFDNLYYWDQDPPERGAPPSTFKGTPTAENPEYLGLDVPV
UniProt P04626, with tags, fused parts or gaps DUP772-775: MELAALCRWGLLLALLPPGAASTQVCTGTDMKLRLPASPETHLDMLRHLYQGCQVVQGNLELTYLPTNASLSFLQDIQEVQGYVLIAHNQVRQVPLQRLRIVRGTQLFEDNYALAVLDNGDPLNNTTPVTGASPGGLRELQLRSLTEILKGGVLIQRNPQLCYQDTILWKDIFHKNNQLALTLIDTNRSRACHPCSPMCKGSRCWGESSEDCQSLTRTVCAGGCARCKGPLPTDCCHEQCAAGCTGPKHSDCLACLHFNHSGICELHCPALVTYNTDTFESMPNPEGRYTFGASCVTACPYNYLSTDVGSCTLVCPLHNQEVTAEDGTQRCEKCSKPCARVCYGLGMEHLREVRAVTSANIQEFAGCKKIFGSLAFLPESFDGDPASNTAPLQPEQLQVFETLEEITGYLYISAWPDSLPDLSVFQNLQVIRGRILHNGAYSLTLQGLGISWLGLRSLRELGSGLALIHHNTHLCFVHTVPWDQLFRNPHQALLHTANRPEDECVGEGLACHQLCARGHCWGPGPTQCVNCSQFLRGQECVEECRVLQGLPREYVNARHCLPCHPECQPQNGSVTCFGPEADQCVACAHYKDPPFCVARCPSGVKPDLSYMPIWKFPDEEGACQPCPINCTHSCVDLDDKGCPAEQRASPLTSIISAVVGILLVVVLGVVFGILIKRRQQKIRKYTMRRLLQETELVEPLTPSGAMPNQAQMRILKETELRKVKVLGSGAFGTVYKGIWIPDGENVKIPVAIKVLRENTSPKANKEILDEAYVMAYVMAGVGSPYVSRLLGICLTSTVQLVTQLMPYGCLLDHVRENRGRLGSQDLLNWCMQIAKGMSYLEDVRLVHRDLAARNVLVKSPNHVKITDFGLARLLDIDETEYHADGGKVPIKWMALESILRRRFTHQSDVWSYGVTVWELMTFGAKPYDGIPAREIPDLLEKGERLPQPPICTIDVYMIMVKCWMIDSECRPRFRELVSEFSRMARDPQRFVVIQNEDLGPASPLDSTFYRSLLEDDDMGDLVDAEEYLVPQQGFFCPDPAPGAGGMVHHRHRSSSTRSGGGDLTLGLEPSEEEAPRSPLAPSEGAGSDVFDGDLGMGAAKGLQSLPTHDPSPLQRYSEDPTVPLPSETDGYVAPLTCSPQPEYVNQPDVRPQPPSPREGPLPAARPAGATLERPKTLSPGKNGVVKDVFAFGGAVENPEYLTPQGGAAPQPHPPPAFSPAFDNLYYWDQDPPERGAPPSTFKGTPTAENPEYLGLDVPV

Legend:
[1] = molecular target: HER2 wild type Ba/F3 cell line (Homo sapiens, UniProt P04626); assay: Ba/F3 cell proliferation MTS assay, HER2 wild type; assay type: cell-based, Murine; conditions: HER2 wild type Ba/F3 cells, 72 hours
[2] = molecular target: HER2 InsYVMA Ba/F3 cell line (Homo sapiens, UniProt P04626, DUP772-775, cells depend on it); assay: Ba/F3 cell proliferation MTS assay, HER2 InsYVMA; assay type: cell-based, Murine; conditions: 72 hours;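 further: murine Ba/F3 cells engineered to carry mutant HER2, viability read colorimetrically by MTS after 72 h of exposure, EC50 from sigmoidal non-linear regression of dose response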

- EC50 [1]: < 0.1 µM
- EC50 [2]: < 0.1 µM
Structure (SMILES): COc1cc2ncnc(Nc3ccc(F)c(Cl)c3)c2cc1NC(=O)/C=C/CN1CCCCC1 [Dacomitinib, reference compound]
